# Antibody variant affinities, Ab-14 heavy chain, assay 1

Binding partner: SARS-CoV-2 spike HR2 peptide, sequence PDVDLGDISGINAS.

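The starting antibody came from a phage panning campaign against this peptide. The library (AAYL49) carries one to three amino acid substitutions per variant, with no insertions or deletions. In AlphaSeq, yeast of one mating type display the scFv and yeast of the other type display the target. Binding brings cells together so that they mate, and sequencing counts the barcode pairs among the diploids. A regression on co-assayed BCL2-family reference pairs converts the normalised counts of each replicate to an apparent Kd. Each pool was mated in three replicate cultures.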

Each scFv is VH, the linker GGGGSGGGGSGGGGS, VL, as in the parent Ab-14, and differs from it in the CDRs of the heavy chain only.
VH: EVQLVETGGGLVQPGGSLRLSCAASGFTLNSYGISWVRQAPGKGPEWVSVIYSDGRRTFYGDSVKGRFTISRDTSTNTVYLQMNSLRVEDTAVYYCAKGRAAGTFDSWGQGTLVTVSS
VL: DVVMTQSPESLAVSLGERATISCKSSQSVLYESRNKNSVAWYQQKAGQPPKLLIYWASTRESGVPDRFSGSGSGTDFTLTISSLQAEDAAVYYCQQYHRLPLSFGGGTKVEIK

Each variant is given by its three heavy chain CDRs, as the data file delimits them; those of the parent are GFTLNSYGIS, VIYSDGRRTFYGDSVK, GRAAGTFDS.
Affinities are written as log10 Kd with Kd in nM; a lower number is a better binder.
Where no diploid with the target was found in that replicate, the entry reads "nd": below detection, most likely a poor binder, though not proof of it.
Nonspecific signal, from three strains lacking the peptide, appeared in 15% of pairings of library AAYL49, centred on 4.06 (5% of these signals below 2.83); values are not corrected for it. For each scFv, signals with the empty controls are counted beside the result.

GFTLNSYGIS / VIYSDGRETFYGDSVK / GRAAGTFDS: nd, nd, nd (controls 0 of 9).
KFTLNSYGIS / HIYSMGRRTFYGDSVK / GRAAGTFDS: nd, 4.38, nd (controls 5 of 9).
GFTLNSYGIS / VIYSDWRRTFYGDSVL / PRAAGTFDS: nd, nd, nd (controls 0 of 9).
GFTLNMYGIS / VIYSDGRRTRYGDSVK / GRAAGRFDS: nd, 3.97, 3.66 (controls 2 of 9).
GFTLNSYLIS / WIYSDGRRTFYGDSGK / GRAAGTFDS: nd, nd, nd (controls 0 of 9).
GFTLWSYAIS / VIYSDGRRWFYGDSVK / GRAAGTFDS: nd, nd, nd (controls 0 of 9).
GFFLNSWGIS / VIYSDGRRYFYGDSVK / GRAAGTFDS: nd, nd, nd (controls 0 of 9).
GFTLNSYGIS / VIHSDGTRTFYGDIVK / GRAAGTFDS: nd, nd, nd (controls 1 of 9).
GFTLNSYGIS / VEYSDGRRTFYHDWVK / GRAAGTFDS: nd, 4.91, nd (controls 1 of 9).
GFTLNSYGNS / VIYSDGRRTFYQDSVK / GRAAGTFRS: nd, nd, nd (controls 0 of 9).
GFTLNSYGIS / VIYNDGRRTPTGDSVK / GRAAGTFDS: 5.07, nd, 3.50 (controls 1 of 9).
WFTLNSYGIS / VIYSDMRRTFYGDSVK / GRALGTFDS: 3.63, 3.29, 3.81 (controls 1 of 9).
AFTLNSYGIS / VIYSDGDRTFYGDSVK / WRAAGTFDS: 2.83, 2.32, 2.90 (controls 2 of 9).
GFTLNSYGIS / VIPSDGRRTFYGDSVD / PRAAGTFDS: nd, 3.63, nd (controls 2 of 9).
GFTSNSYGIS / VILSDGRRTFYGDSQK / GRAAGTFDS: nd, nd, nd (controls 0 of 9).
GFTLKSPGIS / VIYSDGRRTRYGDSVK / GRAAGTFDS: nd, nd, nd (controls 0 of 9).
GFTLNSYYIS / VIYSDGRRTFYGDSVK / GQAAGTFDF: nd, nd, nd (controls 0 of 9).
GFTFNSYTIS / VIYSDGRRTFYGDSVK / GRAAETFDS: nd, nd, nd (controls 1 of 9).
RFTDNWYGIS / VIYSDGRRTFYGDSVK / GRAAGTFDS: 0.61, 0.79, 0.65 (controls 2 of 9).
MFTLNSYGIS / VIYSDERRTFYGDSVK / GRAAGTFDQ: nd, nd, nd (controls 0 of 9).
GFTLNSYGDS / VIYSDGRRTFNGTSVK / GRAAGTFDS: nd, nd, 3.98 (controls 0 of 9).
GFTLNSYGIS / VIYSDHRRTGYFDSVK / GRAAGTFDS: nd, nd, nd (controls 2 of 9).
GFTLNSQGIS / VIYSDGRRTFYGDDVK / GRAAGAFDS: 2.67, 3.03, 2.09 (controls 2 of 9).
GMTINSYGIS / VIYSDGRRTFYGDSVK / GRAAGTFDN: 0.69, 1.02, 0.90 (controls 1 of 9).
KLTLNSYGIS / VIYSDGRRTFYGDSVK / GRAAGTFDS: 1.60, 1.66, 1.58 (controls 1 of 9).
GFTLNSYGRS / VIYSDGRRTFYGDSMK / GRVAGTFDS: nd, 5.18, 5.08 (controls 3 of 9).
GFTLNSYIIQ / MIYSDGRRTFYGDSVK / GRAAGTFDS: nd, nd, nd (controls 2 of 9).
GFTLNSKGIS / VIYSDGRRDFYGDSVD / GRAAGTFDS: 3.79, nd, nd (controls 0 of 9).
GWTLNSYGIS / VQYSFGRRTFYGDSVK / GRAAGTFDS: nd, nd, nd (controls 2 of 9).
GFTLNSYGIS / VIYSDGTRTFYGWSVA / GRAAGTFDS: 2.08, 1.87, 2.54 (controls 1 of 9).
GFTLNSYGIS / VIYVDGRRTFYMDSVK / GRAAGTFDS: 2.43, 2.46, 2.64 (controls 3 of 9).
GFTLNSYGKS / VYYSDGRRTFYGDCVK / GRAAGTFDS: nd, nd, nd (controls 1 of 9).
GLTLNSYGTS / VIYSDGRRTFYGDSVK / GYAAGTFDS: nd, nd, nd (controls 1 of 9).
MFTLNSYGIS / VIYSDGRRTFTGDSVK / GNAAGTFDS: nd, nd, nd (controls 0 of 9).
GFTCNSYLIS / VIYSDGRRTYYGDSVK / GRAAGTFDS: nd, nd, nd (controls 0 of 9).
WFTLNSYGIS / VIYSDGRRTFYGDSVK / GRAAGTFCS: 3.57, nd, 3.55 (controls 2 of 9).
GFTHNSYGIS / DIYSDGRRTFLGDSVK / GRAAGTFDS: nd, nd, nd (controls 0 of 9).
GFTLNSYGIS / VDYSDGRRTFYGDSWK / GRSAGTFDS: 4.21, nd, nd (controls 3 of 9).
GETLNSYGIS / VINSDGRRTFYGDSVK / GRPAGTFDS: nd, 5.31, 3.45 (controls 4 of 9).
GFTKASYGIS / VIYSDGRRTFIGDSVK / GRAAGTFDS: nd, nd, nd (controls 2 of 9).
CFTDNSYGIS / VIYSDGRRTFYGDSVK / GKAAGTFDS: nd, nd, nd (controls 0 of 9).
GFTLNSYGIS / VIYSDGRRTFYGDSVK / GRAAGTFDH: 1.56, 1.69, 1.37 (controls 0 of 9).
GFTLNSYGIS / VIYSDGRRTFYGYSVW / GRHAGTFDS: 3.62, 3.85, 2.32 (controls 2 of 9).
GFTLNSYGIS / TIYKDGRRTFYGDSVK / GRAAMTFDS: nd, nd, nd (controls 0 of 9).
GFTLNRYGIS / VKYSDGRRTFYGDSVK / ERAAGTFDS: nd, nd, nd (controls 0 of 9).
KFTLNKYGIS / VIYSDGRRTFYGVSVK / GRAAGTFDS: nd, nd, nd (controls 0 of 9).
DFTLNSYGIS / VIYSGGRRTFYGDSVK / GRAWGTFDS: nd, nd, nd (controls 1 of 9).
MFTLNSYGIS / AIYSDKRRTFYGDSVK / GRAAGTFDS: 4.33, 4.75, nd (controls 4 of 9).

7 of these entries, quoted again:

CDR-H1	CDR-H2	CDR-H3	log10 Kd (nM) by replicate	signal with controls
AFTLNSYGIS	VIYSDGDRTFYGDSVK	WRAAGTFDS	2.83, 2.32, 2.90	2/9
GFTHNSYGIS	DIYSDGRRTFLGDSVK	GRAAGTFDS	nd, nd, nd	0/9
GFTLNSYGIS	VIYNDGRRTPTGDSVK	GRAAGTFDS	5.07, nd, 3.50	1/9
GFTLNSYGIS	TIYKDGRRTFYGDSVK	GRAAMTFDS	nd, nd, nd	0/9
GFTLNSYGIS	VIYSDWRRTFYGDSVL	PRAAGTFDS	nd, nd, nd	0/9
RFTDNWYGIS	VIYSDGRRTFYGDSVK	GRAAGTFDS	0.61, 0.79, 0.65	2/9
GFTLNSYGIS	VIYSDGTRTFYGWSVA	GRAAGTFDS	2.08, 1.87, 2.54	1/9

Values reported by Engelhart et al. 2022, doi:10.1038/s41597-022-01779-4 (FLAb copy).